Test results published in patent US20170037117A1, “COMPOSITIONS AND METHODS FOR TREATING METABOLIC DISORDERS” (Salk Institute for Biological Studies, priority 2014, published 2017).

Key:
[1] = tested on: G1 Fab binding to human α-CGRP on the chip; assay: Epitope mapping of antibody G1 by peptide competition using Biacore; details: 10 uM peptide in 50 nM G1 Fab (2000:1 mol peptide/Fab); FIG. 6
Text: N-biotinylated human α-CGRP was captured on SA sensor chip. […] Y axis represents percentage of binding blocked by the presence of the competing peptide compared with the binding in the absence of the competing peptide.
To determine the epitope on human α-CGRP that is recognized by antibody G1, Biacore assays described above were used. Human α-CGRP was purchased as an N-biotinylated version to enable its high-affinity capture via SA sensor chips. […] All these peptides are amidated at the C-terminus.

MIN6 cells = assay: Insulin secretion assay of mouse insulinoma cells (MIN6) upon glucose stimulation; format: cell-based; details: 16.8 mM glucose, 100 nM to 500 nM peptide, FIGS. 15A-C, 16A
Experimental: FIGS. 15A-15C: Insulin secretion assay of mouse insulinoma cells (MIN6) upon 16.8 mM glucose stimulation. Cells were incubated with 0.1-0.5 μM synthetic peptides for FIG. 15A: rat CGRPα, FIG. 15B: rat CGRPβ and FIG. 15C: rat Substance P, n=4, means±S.E.M, **p<0.01, *p<0.05, Student's t test. FIG. 15D: Serum levels of CGRP measured by ELISA in blood samples from WT and TRPV1 mutants at 3 and 24 months, n=7, means±S.E.M. a, ns and b, p<0.05. FIG. 15E: Respiratory exchange ratio (RER) analysis and oxygen consumption FIG. 15F: of 23 months old male WT animals treated with CGRP8-37 or vehicle control, n=10, means±S.E.M.,**p<0.01, *p<0.05, Student's t test.
FIGS. 16A-16C illustrate insulin secretion and inflammation of the TRPV1 mutant mice. FIG. 16A: Insulin secretion assay of mouse insulinoma cells (MIN6) upon 16.8 mM glucose stimulation with 0.1-0.5 μM synthetic human CGRPα. FIG. 16B: Insulin secretion assay (MIN6) upon 16.8 mM glucose and exendin 4 stimulation. Cells were incubated with 0.1-0.5 μM synthetic peptides for h CGRPα, rat CGRPβ and rat Substance P, n=4, means±S.E.M, **p<0.01, *p<0.05, Student's t test. FIG. 16C: qPCR analysis of chemokines and pro-inflammatory genes at 24 months in brain, quadriceps muscle, gonadal fat and pancreas at 24 months (n=5, means±SEM, n.s., Student's t test). […]

1-37 (WT): human α-CGRP 1-37, SEQ ID NO: 15, ACDTATCVTHRLAGLLSRSGGVVKNNFVPTNVGSKAF, C-terminally amidated
percentage of binding of G1 Fab to human α-CGRP blocked by competing peptide [1]: 100%
effect on glucose-stimulated insulin release (MIN6 cells): significant blockade of the insulin response, albeit to a lesser extent
